According to patent US8337856B2, “Methods of treatment using anti-ERBB antibody-maytansinoid conjugates” (Immunogen, Inc., priority 2000, dated 2012):

Key:
HER2-transgenic tumors [1] = assay: MMTV-HER2-transgenic tumors transplanted into mammary fat pad of FVB mice (FIG. 9); format: in vivo, mouse; conditions: conjugate i.v. on 5 consecutive days, antibodies IP twice per week 10 mg/kg
Method: FIG. 9 illustrates the effect of HERCEPTIN®-DM1 on HER2-transgenic tumors. Two mm^3 pieces of MMTV-HER2-transgenic tumors were transplanted into the mammary fat pad of FVB mice. When tumors reached 250 mm^3, groups of 8 mice were injected i.v. on 5 consecutive days with a HERCEPTIN®-DM1 conjugate.
The amount of HER2 extracellular domain (ECD) shed into serum was measured and found to be about 1.2 ng/ml (Huang et al., supra). This mouse subsequently developed a mammary tumor at 5 months of age, after bearing 4 litters. The tumor was surgically resected under aseptic conditions and minced into small pieces, 2 mm^3, which were then transplanted into the mammary fat pad of wild-type FVB female mice. […] Tumors developed in 22 of 31 recipient mice, with a latency of 5 weeks. With subsequent passage, tumors developed with shorter latency and grew more rapidly, and tumor incidence increased to >95% of recipients. HER2 expression, as determined by immunohistochemical staining, was 3+ but heterogeneous in the primary tumor, but became uniformly 3+ after the first passage.
In addition, HER2 appears to be activated in the tumor cells, as evidenced by the binding of an anti-tyrosine phosphorylated HER2 antibody (FIG. 10).
RITUXAN®, an unrelated anti-CD20 monoclonal antibody, was used as a negative control for these studies. […] After approximately 4 weeks, tumors began to regrow. […]

HER2-transgenic tumors [2] = assay: HER2 transgenic tumor transplant, dosing regimens (FIG. 11, 13, 14); format: in vivo, mouse; conditions: comparison groups to HERCEPTIN®-DM1
Method: Mice with 100 mm^3 tumors were injected i.v. with HERCEPTIN®-DM1 or RITUXAN®-DM1 at doses of 100 or 300 μg DM1/kg twice a week or 300 μg DM1/kg once a week. All animals received 5 doses.
A second dose of HERCEPTIN®-DM1 following the beginning of tumor regrowth was effective in shrinking the tumors again.
The results of a similar experiment are depicted in FIG. 13. The results of three different dosing regimens of HERCEPTIN®-DM1 conjugate on tumor size are shown compared to matching dosing regimens of RITUXAN®-DM1. […] This was true both when the HERCEPTIN®-DM1 was administered once a week and when it was administered twice a week.

HER2 tumor transplants = assay: HER2 transgenic tumor transplant in nude mice, doses and schedule (FIG. 12); format: in vivo; conditions: conjugate 10-300 μg DM1/kg once or twice a week, 5 doses, HERCEPTIN® 18 mg/kg twice a week
Method: In yet another experiment, the amount of HERCEPTIN®-DM1 conjugate as well as the frequency of administration were varied while keeping the total number of doses at five. The evaluation was carried out in nude mice containing HER2 tumor transplants in mammary pads. […] Another group of animals received HERCEPTIN®-DM1 at 300 or 100 μg DM1/kg once a week for the total of 5 doses.

tumors overexpress HER2 = conditions: cited from earlier work
[3] = breast cancer patients progressed after conventional chemotherapy

Substance: HERCEPTIN®: humanized version of murine anti-HER2 antibody 4D5, IgG1 isotype
- effect on growth of the transplanted tumors (HER2-transgenic tumors [1]): only a modest effect; also recorded: little response
- tumor growth in treated animals (HER2-transgenic tumors [2]): rapid growth of tumors
- control of growth of mammary tumors (HER2 tumor transplants): failed to control the growth of mammary tumors
- median time to disease progression (tumors overexpress HER2; all treated patients, clinical trial preceding marketing approval): 3.1 months
- complete responses (tumors overexpress HER2; [3]): 4 % of patients
- median duration of responses (tumors overexpress HER2; [3]): 9.1 months
- partial responses (tumors overexpress HER2; [3]): 11%

“Also recorded” adds a separate entry of the source.
